In PMC6706711 (Iranian Journal of Pharmaceutical Research : IJPR, 2019):

Legend:
[1] = Individual pharmacokinetic parameters by renal function subgroup, post hoc empirical Bayesian approach; details: for CL / Vd / ke: SD
[2] = 30 ≤ GFR < 60 mL/min·1.73m2, N=20, mean ± SD
[3] = 60 ≤ GFR < 90 mL/min·1.73m2, N=24, mean ± SD
[4] = GFR ≥ 90 mL/min·1.73m2, N=111, mean ± SD
[5] = moderate renal insufficiency (30 ≤ GFR < 60) compared with normal renal function (GFR ≥ 90 mL/min·1.73m2)

## CN[C@H](CC(C)C)C(=O)N[C@H]1C(=O)N[C@@H](CC(N)=O)C(=O)N[C@H]2C(=O)N[C@H]3C(=O)N[C@H](C(=O)N[C@H](C(=O)O)c4cc(O)cc(O)c4-c4cc3ccc4O)[C@H](O)c3ccc(c(Cl)c3)Oc3cc2cc(c3O[C@@H]2O[C@H](CO)[C@@H](O)[C@H](O)[C@H]2O[C@H]2C[C@](C)(N)[C@H](O)[C@H](C)O2)Oc2ccc(cc2Cl)[C@H]1O [vancomycin, Vancomycin]
1,000 bootstrap-resampled data sets
  θ (L·h-1) (typical value for Weight=9 kg and CL GFR=121.5 mL/min·1.73m2), bootstrap median: 0.98 L/h
Typical population value, median weight 9 kg, median GFR 121.5 mL/min·1.73 m2
  half-life estimate: 3.4 h
[1]; [2]
  CL: 0.086±0.043 ^a ^b L·kg-1·h-1
  Vd: 0.66 ± 0.29 L/kg
  ke: 0.137±0.062 ^a ^b h-1
[1]; [3]
  CL: 0.131 ± 0.091 L/kg/h
  Vd: 0.68 ± 0.43 L/kg
  ke: 0.195±0.072 ^a h-1
[1]; [4]
  CL: 0.142 ± 0.059 L/kg/h
  Vd: 0.65 ± 0.27 L/kg
  ke: 0.238 ± 0.090 h⁻¹
[1]; [5]
  clearance decrease: 39.4%
  elimination rate constant decrease: 42.4%
  half life increase: 1.74 fold

Marks after values point to notes of the source that are not given here.
